Test results reported in US20240425441A9, “MODULATORS OF LIPOXYGENASE AND CYCLOOXYGENASE ENZYME ACTIVITY” (Université de Moncton, priority 2016, published 2024).

Amino acid sequences for entries named in this document (tags omitted).
UniProt P09917, whole entry: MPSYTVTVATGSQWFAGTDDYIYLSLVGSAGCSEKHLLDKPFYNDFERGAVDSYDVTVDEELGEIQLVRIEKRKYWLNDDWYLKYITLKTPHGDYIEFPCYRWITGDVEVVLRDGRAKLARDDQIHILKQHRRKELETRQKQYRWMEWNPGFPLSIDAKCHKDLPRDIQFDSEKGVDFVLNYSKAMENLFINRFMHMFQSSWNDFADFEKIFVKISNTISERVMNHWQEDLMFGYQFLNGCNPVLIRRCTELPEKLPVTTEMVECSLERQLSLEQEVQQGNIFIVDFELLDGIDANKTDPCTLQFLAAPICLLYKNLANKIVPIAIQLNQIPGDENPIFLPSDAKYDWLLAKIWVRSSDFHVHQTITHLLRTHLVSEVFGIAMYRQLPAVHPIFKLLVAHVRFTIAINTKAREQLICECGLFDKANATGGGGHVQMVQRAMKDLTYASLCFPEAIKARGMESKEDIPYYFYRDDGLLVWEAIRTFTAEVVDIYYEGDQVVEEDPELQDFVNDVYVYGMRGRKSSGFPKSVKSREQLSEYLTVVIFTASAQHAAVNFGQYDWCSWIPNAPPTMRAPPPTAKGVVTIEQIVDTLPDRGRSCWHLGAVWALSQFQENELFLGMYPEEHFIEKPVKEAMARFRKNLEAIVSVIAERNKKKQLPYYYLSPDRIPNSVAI

Target: 5-lipoxygenase (Homo sapiens (Human), UniProt P09917)
Assay: Stimulation of isolated PMN (neutrophils) for 5-LO products
Format: cell-based
Conditions: read-out: PMN dose-response, ranges indicate confidence interval

- IC50: 580 to 800 nM
Compound: COc1ccc(OC)c(C=CC(=O)OCC=C(C)C)c1
